According to patent US20160136299A1 (Sanofi, published 2016):
Substitutions are numbered along the chain they refer to. Names and notes keep the numbering of the source.

T1: TEM1 on SJSA-1 and A673 cells (UniProt Q9HCU0 18-757, limits assumed)
T1 sequence (looked up): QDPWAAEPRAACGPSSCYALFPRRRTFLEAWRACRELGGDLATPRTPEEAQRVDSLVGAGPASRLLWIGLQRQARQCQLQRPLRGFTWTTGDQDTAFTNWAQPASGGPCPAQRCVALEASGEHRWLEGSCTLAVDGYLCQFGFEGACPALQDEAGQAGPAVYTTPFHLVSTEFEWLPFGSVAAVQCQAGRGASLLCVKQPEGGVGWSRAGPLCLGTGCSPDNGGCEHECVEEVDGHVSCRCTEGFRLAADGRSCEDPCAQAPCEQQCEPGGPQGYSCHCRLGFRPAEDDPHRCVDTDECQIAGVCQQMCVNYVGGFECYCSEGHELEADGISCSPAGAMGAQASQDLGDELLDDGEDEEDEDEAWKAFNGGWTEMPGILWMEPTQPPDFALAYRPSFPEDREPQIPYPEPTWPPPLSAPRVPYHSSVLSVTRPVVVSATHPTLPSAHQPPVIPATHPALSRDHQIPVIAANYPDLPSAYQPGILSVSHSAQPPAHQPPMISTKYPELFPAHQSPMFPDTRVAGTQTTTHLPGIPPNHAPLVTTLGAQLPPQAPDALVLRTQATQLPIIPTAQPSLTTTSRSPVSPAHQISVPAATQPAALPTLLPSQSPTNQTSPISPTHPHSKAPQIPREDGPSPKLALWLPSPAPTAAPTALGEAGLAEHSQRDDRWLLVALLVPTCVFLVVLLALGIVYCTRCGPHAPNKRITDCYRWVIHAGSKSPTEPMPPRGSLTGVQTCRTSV

B1: antiTEM1 A114N-AO-MC-VC-PABC-MMAE (antibody, human IgG1, kappa)
heavy: QVQLQESAPGLVKPSETLSLTCTVSGGSIRSYYWSWIRQPPGKGLEYIGYIYYTGSAIYNPSLQSRVTISVDTSKNQFSLKLNSVTAADTAVYYCAREGVRGASGYYYYGMDVWGQGTTVTVSSNSTKGPSVFPLAPSSKSTSGGTAALGCLVKDYFPEPVTVSWNSGALTSGVHTFPAVLQSSGLYSLSSVVTVPSSSLGTQTYICNVNHKPSNTKVDKKV[omitted - human IgG1 Fc]
light: not shown
modifications: aminooxy-MC-VC-PABC-MMAE on galactose aldehyde (galactose oxidase) of the glycans, DAR 1.72
B2: antiTEM1-MC-VC-PABC-MMAE (antibody, human IgG1, kappa)
heavy: B1 heavy with N125A
light: not shown
modifications: MC-VC-PABC-MMAE by thiol conjugation; DAR not given

Molecular target: T1, TEM1 on SJSA-1 and A673 cells
Assay: cell-based or functional assay

Binder	IC50, cell proliferation assay, A673-DMEM-RPMI [µg/mL]	IC50, cell proliferation assay, SJSA-1 [µg/mL]	IC50, cell proliferation assay, A673-RPMI [µg/mL]
B1	2.2	3	–
B2	0.9	4	1
